Results reported in US11447825B2, “In-vitro methods for the detection of autoimmune diseases or conditions” (Universitätsmedizin der Johannes Gutenberg-Universität Mainz, priority 2015, dated 2022).

Legend:
Assay type in all cases: in vivo, human
PGC-1α = assay: IFN-β therapy of MS patients: PGC-1α mRNA in activated T-cells by qRT-PCR; details: CD3+ T-cells of IFN-β-treated MS patients, activated 4 h with anti-CD3 and anti-CD28 mAb; comparable to HC
Protocol: (§1) 85 patients with a relapsing-remitting course (RRMS, age 18 to 64 years) and 4 patients with a clinically isolated syndrome (CIS, age 22 to 53) all fulfilling the revised McDonald criteria for multiple sclerosis were included in this study. 31 patients were treated for at least 4 month with IFN-β. 58 patients had not received previous treatment or immunosuppressive agents six months before time point of analysis and were clinically stable. PBMC from healthy controls served as controls. PBMC were isolated within 12 h after blood collection and were used directly in in vitro experiments. Blood was kept at room temperature before PBMC enrichment. […]
RNA was extracted from 2×10^6 cells using Rneasy Kit (Qiagen) according to manufacturer's instructions. cDNA was generated by reverse transcription with Sensiscript RT Kit (Qiagen) and amplified by quantitative RT-PCR (qRT-PCR, 7300 Real Time PCR System (Applied Biosystem) and the QuantiFAST PCR Kit (Qiagen). Relative IL-6 mRNA (QuantiTect Primer, Qiagen) expression levels were normalized to EF1-α or β-Actin. Relative PPARGC1α, IRF8, FGF19, HNF4A, Hdac, RORA mRNA was analyzed with QuantiTect Primer Assay (Qiagen) according to manufacturer's instructions and expression levels were normalized to β-ACT. […]

[1] = system: peripheral T-cells of MS patients; assay: IFN-β therapy of MS patients: sensitivity of peripheral T-cells to Treg-mediated suppression; details: four month treatment with IFN-β, Treg ratio 1:1, compared with therapy-naïve MS and HC
Protocol: as §1
Treg-depleted PBMC (10^5 cells) were stimulated with 0.5 μg/ml anti-CD3 mAb (OKT-3) and cultured in presence or absence of different Treg ratios (Treg:T-cells 1:1 to 1:64) (Jonuleit et al., 2001; Kubach et al., 2007). T-cell proliferation was determined on day three of cultures by addition of 37 kBq/well ^3H-Tdr for additional 16 h. […] Proliferation was assessed on day 3 after excluding dead cells. Analysis was performed on LSRII (BD Bioscience) and evaluated using DIVA software (BD Bioscience).
A) Treg-depleted PBMC from therapy-naïve (black), IFN-β-treated MS patients (blue) or HC (white) were cocultured with allogeneic Treg and stimulated with anti-CD3 mAb. T cell proliferation was determined by 3H-Tdr incorporation on day three. […]

IL-6R = assay: IFN-β therapy of MS patients: IL-6R expression within CD3+ T-cells by flow cytometry; details: IL-6R+ cells within CD3+ T-cells, IFN-β-treated versus therapy-naïve MS patients
Protocol: as §1
(§2) For surface staining of PBMC or T-cells indicated antibodies were incubated for 30 min at 4° C. and washed twice with PBS. Stained cells were measured on LSRII with FACS Diva Software (BD Bioscience). […]
(§3) A) Treg-depleted PBMC from therapy-naïve (black), IFN-β-treated MS patients (blue) or HC (white) were cocultured with allogeneic Treg and stimulated with anti-CD3 mAb. T cell proliferation was determined by 3H-Tdr incorporation on day three. […] B) PKB/c-Akt phosphorylation was determined by flow cytometry within CD3^+ T-cells from therapy-naïve (red), IFN-βtreated MS patients (blue) or HC (black). […] C) IL-6R expression within PBMC from HC (black), therapy-naïve (red), or IFN-β-treated (blue) MS patients was determined by flow cytometry. […]

PKB/c-Akt = assay: IFN-β therapy of MS patients: PKB/c-Akt phosphorylation in CD3+ T-cells; details: CD3+ T-cells of IFN-β-treated versus therapy-naïve MS patients
Protocol: as §1, §2, §3

B1: IFN-β: standard therapy in the treatment of relapsing remitting MS (protein, UniProt P01574 22-187, looked up)
Interferon beta: MSYNLLGFLQRSSNFQCQKLLWQLNGRLEYCLKDRMNFDIPEEIKQLQQFQKEDAALTIYEMLQNIFAIFRQDSSSTGWNETIVENLLANVYHQINHLKTVLEEKLEKEDFTRGKLMSSLHLKRYYGRILHYLKAKEYSHCAWTIVRVEILRNFYFINRLTGYLRN
PGC-1α mRNA expression after activation (PGC-1α): significant up-regulation of PGC-1α | sensitivity of peripheral T-cells to Treg-mediated suppression [1]: restored sensitivity of peripheral T-cells to Treg-mediated suppression nearly to a level of T-cells from HC | IL-6R expression (IL-6R): decreased IL-6R expression | PKB/c-Akt phosphorylation (PKB/c-Akt): reduced PKB/c-Akt phosphorylation
